Two compounds from US12594289B2, “Potentiation of antibiotic effect” (The University of North Carolina at Chapel Hill, priority 2017, dated 2026) can be followed below.

The subject of this experiment is S. aureus strain HG003.

`CCCCCCCc1cc(O)c2ccccc2[n+]1[O-]` [HQNO, 2-heptyl-4-hydroxyquinoline N-oxide]: the “induction of tolerance of S. aureus to ciprofloxacin” value is on record as “capable of inducing tolerance” and the “protection of S. aureus against tobramycin killing (tobramycin tolerance)” value is “full protection”.
Regarding `Cn1c2cccc(=O)c-2nc2ccccc21` [pyocyanin], the “induction of tolerance of S. aureus to ciprofloxacin” value was “capable of inducing tolerance”.
